According to patent US10023539B2, “Aryl-cyanoguanidine compounds” (Bayer Pharma Aktiengesellschaft, priority 2014, dated 2018):
“And” between values parts separate entries of the source, which are not always exact repeats. Equal entries are not always repeated.

By UniProt entry, the sequences of proteins in these tests, tags left out. Where a name states a change or a piece, a line headed by the entry shows the natural chain unless it says otherwise.
UniProt Q9NRG4: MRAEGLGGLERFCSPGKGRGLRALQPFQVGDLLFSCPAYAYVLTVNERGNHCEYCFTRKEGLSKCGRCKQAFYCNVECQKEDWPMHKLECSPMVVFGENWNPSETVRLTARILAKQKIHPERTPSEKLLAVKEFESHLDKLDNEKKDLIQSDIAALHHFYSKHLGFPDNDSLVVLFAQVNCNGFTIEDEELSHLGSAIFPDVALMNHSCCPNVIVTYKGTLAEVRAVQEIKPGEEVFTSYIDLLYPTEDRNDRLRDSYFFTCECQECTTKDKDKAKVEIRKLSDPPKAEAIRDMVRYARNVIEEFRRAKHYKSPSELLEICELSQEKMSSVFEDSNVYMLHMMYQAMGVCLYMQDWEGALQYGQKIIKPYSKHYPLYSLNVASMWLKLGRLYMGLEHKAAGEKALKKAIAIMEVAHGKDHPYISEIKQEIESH

Columns and labels:
SMYD2 [1] = target: T1, SMYD2 (Homo sapiens (Human), UniProt Q9NRG4); assay: In Cell Western (ICW) cell-based assay for detection of SMYD2 methylation activity; conditions: SMYD2 overexpressing KYSE-150 cells, 72 h treatment, p53K370me1 signal; read-out: IC50 [mol/l] (ICW assay)
SMYD2 [2] = target: T1, SMYD2; assay: Scintillation Proximity Assay (SPA) for detection of SMYD2 enzymatic inhibition; format: biochemical; conditions: methylation of biotinylated p53 Peptide, 3H-SAM, full length SMYD2; read-out: IC50 [mol/l] (SPA Assay)
Experimental: 1.1 Scintillation Proximity Assay (SPA) for Detection of SMYD2 Enzymatic Inhibition
The SMYD2 full length enzyme was produced in-house by expression (with an N-terminal 6×His tag) in E. coli and purification by affinity chromatography on a Ni-NTA Sepharose column followed by a size exclusion chromatography step on a Superdex 200 16/60 column (GE Healthcare).
To this end, 100-fold concentrated compound solutions (in DMSO) were previously prepared by serial dilution (1:3.4) of 2 mM stocks in a clear low volume 384-well source microtiter plate (Greiner Bio-One), from which 50 nl of compound solutions were transferred into a white low volume test microtiter plate from the same supplier. […] The samples were then incubated for 15 min at 22° C. to allow pre-equilibration of the putative enzyme-inhibitor complexes before the start of the methylation reaction, which was initiated by the addition of 2.5 μl 2-fold concentrated solution (in assay buffer) of titrated S-Adenosyl-L-Methionine (3H-SAM, Perkin Elmer, final concentration: 60 nM) and p53 Peptide substrate (final concentration: 1.0 μM). The resulting mixture (5 μl final volume) was shortly centrifuged (2 min., 1500 rpm) and incubated at 22° C. during 30 min. Thereupon the reaction was stopped by adding 3 μl of Streptavidin PS SPA imaging beads (Perkin Elmer, final concentration of 3.12 μg/μl) and “cold” SAM (AK Scientific, 25 μM final concentration) for non-specific binding reduction. Plates containing the stopped reaction were sealed with transparent adhesive foil (Perkin Elmer), centrifuged (2 min., 1500 rpm), and further incubated for—at least—1 h at RT (or overnight at 4° C.) in order to allow the SPA signals to develop. […] IC50 values were calculated by fitting the normalized inhibition data to a 4-parameter logistic equation using the “Screener” analysis software from Genedata.

SMILES | IC50 (SMYD2 [1]) [nM] | IC50 (SMYD2 [2])
CCN(C(=O)CN)C1CN(/C(=N\C#N)Nc2cccc(OC(F)F)c2)N=C1c1ccc(Cl)c(Cl)c1 (racemic) [Example 3, Rac-N-[1-{N′-cyano-N-[3-(difluoromethoxy)phenyl]carbamimidoyl}-3-(3,4-dichlorophenyl)-4,5-dihydro-1H-pyrazol-4-yl]-N-ethylglycinamide] | 101 | 15 nM
CCN(C(=O)CO)C1CN(/C(=N\C#N)Nc2cccc(OC(F)F)c2)N=C1c1ccc(Cl)c(Cl)c1 (racemic) [Example 4, Rac-N-[1-{N′-cyano-N-[3-(difluoromethoxy)phenyl]carbamimidoyl}-3-(3,4-dichlorophenyl)-4,5-dihydro-1H-pyrazol-4-yl]-N-ethyl-2-hydroxyacetamide] | 176 | 82.5 nM
CC(C)(O)C(=O)NC1CN(/C(=N\C#N)Nc2cccc(OC(F)F)c2)N=C1c1ccc(Cl)c(Cl)c1 (racemic) [Example 5, Rac-N-[1-{N′-cyano-N-[3-(difluoromethoxy)phenyl]carbamimidoyl}-3-(3,4-dichlorophenyl)-4,5-dihydro-1H-pyrazol-4-yl]-2-hydroxy-2-methylpropanamide] | 4140 | 
CCN(C(=O)CCCN)C1CN(/C(=N\C#N)Nc2cccc(OC(F)F)c2)N=C1c1ccc(Cl)c(Cl)c1 (racemic) [Example 10, Rac-4-amino-N-[1-{N′-cyano-N-[3-(difluoromethoxy)phenyl]carbamimidoyl}-3-(3,4-dichlorophenyl)-4,5-dihydro-1H-pyrazol-4-yl]-N-ethylbutanamide] | 8000 | 466 nM
CCN(C(=O)CO)C1CN(/C(=N\C#N)Nc2cccc(OC(F)(F)F)c2)N=C1c1ccc(Cl)c(Cl)c1 (racemic) [Example 13, Rac-N-[1-{N′-cyano-N-[3-(trifluoromethoxy)phenyl]carbamimidoyl}-3-(3,4-dichlorophenyl)-4,5-dihydro-1H-pyrazol-4-yl]-N-ethyl-2-hydroxyacetamide] | 196 | 86.7 nM and 254 nM
CCN(C(=O)CO)C1CN(/C(=N\C#N)Nc2cc(OC(F)F)ccc2OC)N=C1c1ccc(Cl)c(Cl)c1 (racemic) [Example 18, Rac-N-[1-{N′-cyano-N-[5-(difluoromethoxy)-2-methoxyphenyl]carbamimidoyl}-3-(3,4-dichlorophenyl)-4,5-dihydro-1H-pyrazol-4-yl]-N-ethyl-2-hydroxyacetamide] | 27.7 | 12.5 nM
CCN(C(=O)CO)C1CN(/C(=N\C#N)Nc2cccc(OC(F)F)n2)N=C1c1ccc(Cl)c(Cl)c1 (racemic) [Example 20, Rac-N-[1-{N′-cyano-N-[6-(difluoromethoxy)pyridin-2-yl]carbamimidoyl}-3-(3,4-dichlorophenyl)-4,5-dihydro-1H-pyrazol-4-yl]-N-ethyl-2-hydroxyacetamide] | 403 | 247 nM
CCN(C(=O)CO)C1CN(/C(=N\C#N)Nc2cc(C(F)(F)F)ccc2CN2CCCC2)N=C1c1ccc(Cl)c(Cl)c1 (racemic) [Example 27, Rac-N-[1-{N′-cyano-N-[2-(pyrrolidin-1-ylmethyl)-5-(trifluoromethyl)phenyl]carbamimidoy}-3-(3,4-dichlorophenyl)-4,5-dihydro-1H-pyrazol-4-yl]-N-ethyl-2-hydroxyacetamide] | 95.9 | 355 nM
CCN(C(=O)CO)C1CN(/C(=N\C#N)Nc2cc(OC(F)F)ccc2OCCCN(C)C)N=C1c1ccc(Cl)c(Cl)c1 (racemic) [Example 29, Rac-N-[1-(N′-cyano-N-{5-(difluoromethoxy)-2-[3-(dimethylamino)propoxy]phenyl}-carbamimidoyl)-3-(3,4-dichlorophenyl)-4,5-dihydro-1H-pyrazol-4-yl]-N-ethyl-2-hydroxyacetamide] | 214 | 5.55 nM
CCN(C(=O)CO)C1CN(/C(=N\C#N)Nc2cc(C(F)(F)F)ccc2OC2CCN(C)CC2)N=C1c1ccc(Cl)c(Cl)c1 (racemic) [Example 31, Rac-N-[1-(N′-cyano-N-{2-[(1-methylpiperidin-4-yl)oxy]-5-(trifluoromethyl)phenyl}-carbamimidoyl)-3-(3,4-dichlorophenyl)-4,5-dihydro-1H-pyrazol-4-yl]-N-ethyl-2-hydroxyacetamide] | 126 | 9.09 nM
CCN(C(=O)CNC)C1CN(/C(=N\C#N)Nc2cccc(OC(F)F)c2)N=C1c1ccc(Cl)c(C)c1 (racemic) [Example 36, rac-N-[3-(4-Chloro-3-methylphenyl)-1-{N′-cyano-N-[3-(difluoromethoxy)phenyl]carbamimidoyl}-4,5-dihydro-1H-pyrazol-4-yl]-N-ethyl-N^2-methylglycinamide] | 166 | 40.7 nM
CCN(C(=O)CO)C1CN(/C(=N\C#N)Nc2cccc(OC(F)F)c2)N=C1c1ccc(Cl)c(Cl)c1 (single isomer, unassigned) [Example 4.2, N-[1-{N′-cyano-N-[3-(difluoromethoxy)phenyl]carbamimidoyl}-3-(3,4-dichlorophenyl)-4,5-dihydro-1H-pyrazol-4-yl]-N-ethyl-2-hydroxyacetamide] | 1390 | 1320 nM
CCN(C(=O)CO)C1CN(/C(=N\C#N)Nc2cccc(CC(F)(F)F)c2)N=C1c1ccc(Cl)c(Cl)c1 (single isomer, unassigned) [Example 21.2, N-[1-{N′-cyano-N-[3-(2,2,2-trifluoroethyl)phenyl]carbamimidoyl}-3-(3,4-dichlorophenyl)-4,5-dihydro-1H-pyrazol-4-yl]-N-ethyl-2-hydroxyacetamide] |  | 763 nM
CCN(C(=O)CO)C1CN(/C(=N\C#N)Nc2cc(F)cc(OC(F)(F)F)c2)N=C1c1ccc(Cl)c(Cl)c1 (single isomer, unassigned) [Example 25.1, N-[1-{N′-cyano-N-[3-fluoro-5-(trifluoromethoxy)phenyl]carbamimidoyl}-3-(3,4-dichlorophenyl)-4,5-dihydro-1H-pyrazol-4-yl]-N-ethyl-2-hydroxyacetamide] |  | 206 nM
CCN(C(=O)CO)C1CN(/C(=N\C#N)Nc2cc(F)cc(OC(F)(F)F)c2)N=C1c1ccc(Cl)c(Cl)c1 (single isomer, unassigned) [Example 25.2, N-[1-{N′-cyano-N-[3-fluoro-5-(trifluoromethoxy)phenyl]carbamimidoyl}-3-(3,4-dichlorophenyl)-4,5-dihydro-1H-pyrazol-4-yl]-N-ethyl-2-hydroxyacetamide] |  | 10300 nM
CCN(C(=O)CO)C1CN(/C(=N\C#N)Nc2cc(C(F)(F)F)ccc2CN2CCCC2)N=C1c1ccc(Cl)c(Cl)c1 (single isomer, unassigned) [Example 27.1, N-[1-{N′-cyano-N-[2-(pyrrolidin-1-ylmethyl)-5-(trifluoromethyl)phenyl]carbamimidoyl}-3-(3,4-dichlorophenyl)-4,5-dihydro-1H-pyrazol-4-yl]-N-ethyl-2-hydroxyacetamide] |  | 73.2 nM
CCN(C(=O)CO)C1CN(/C(=N\C#N)Nc2cc(C(F)(F)F)ccc2CN2CCCC2)N=C1c1ccc(Cl)c(Cl)c1 (single isomer, unassigned) [Example 27.2, N-[1-{N′-cyano-N-[2-(pyrrolidin-1-Ylmethyl)-5-(trifluoromethyl)phenyl]carbamimidoyl}-3-(3,4-dichlorophenyl)-4,5-dihydro-1H-pyrazol-4-yl]-N-ethyl-2-hydroxyacetamide] |  | 1620 nM
CCN(C(=O)CO)C1CN(/C(=N\C#N)Nc2cccc(OC(F)F)c2)N=C1c1ccc(Cl)c(C)c1 (single isomer, unassigned) [Example 33.1, N-[3-(4-chloro-3-methylphenyl)-1-{N′-cyano-N-[3-(difluoromethoxy)phenyl]carbamimidoyl}-4,5-dihydro-1H-pyrazol-4-yl]-N-ethyl-2-hydroxyacetamide] |  | 18400 nM
CCN(C(=O)CNC)C1CN(/C(=N\C#N)Nc2cccc(OC(F)F)c2)N=C1c1ccc(Cl)c(C)c1 (single isomer, unassigned) [Example 36.1, N-[3-(4-Chloro-3-methylphenyl)-1-{N′-cyano-N-[3-(difluoromethoxy)phenyl]carbamimidoyl}-4,5-dihydro-1H-pyrazol-4-yl]-N-ethyl-N2-methylglycinamide] |  | 754 nM
CCN(C(=O)CNC)C1CN(/C(=N\C#N)Nc2cccc(OC(F)F)c2)N=C1c1ccc(Cl)c(C)c1 (single isomer, unassigned) [Example 36.2, N-[3-(4-Chloro-3-methylphenyl)-1-{N′-cyano-N-[3-(difluoromethoxy)phenyl]carbamimidoyl}-4,5-dihydro-1H-pyrazol-4-yl]-N-ethyl-N2-methylglycinamide] |  | 22.9 nM
CC(C)[C@@](C)(N)C(=O)NC1CN(/C(=N\C#N)Nc2cccc(OC(F)F)c2)N=C1c1ccc(Cl)c(Cl)c1 (stereo partly drawn) [Example 38, N-[1-{N′-cyano-N-[3-(difluoromethoxy)phenyl]carbamimidoyl}-3-(3,4-dichlorophenyl)-4,5-dihydro-1H-pyrazol-4-yl]-3-methyl-D-isovalinamide] |  | 32 nM
